In PubChem BioAssay AID1645855 (Buhrlage Lab, Dana-Farber Cancer Institute and Novartis …, 2021):
Only a part is listed here, and it is no random draw. Active and inactive are the calls of the source. Rule as the data show it: active = inhibition above about 30%; inactive = the rest.

Sequences of proteins named here, by UniProt entry; tags and fusion partners are left off. A change or cut given only in a name is not applied to a line headed by its entry.
UniProt A8MUK1: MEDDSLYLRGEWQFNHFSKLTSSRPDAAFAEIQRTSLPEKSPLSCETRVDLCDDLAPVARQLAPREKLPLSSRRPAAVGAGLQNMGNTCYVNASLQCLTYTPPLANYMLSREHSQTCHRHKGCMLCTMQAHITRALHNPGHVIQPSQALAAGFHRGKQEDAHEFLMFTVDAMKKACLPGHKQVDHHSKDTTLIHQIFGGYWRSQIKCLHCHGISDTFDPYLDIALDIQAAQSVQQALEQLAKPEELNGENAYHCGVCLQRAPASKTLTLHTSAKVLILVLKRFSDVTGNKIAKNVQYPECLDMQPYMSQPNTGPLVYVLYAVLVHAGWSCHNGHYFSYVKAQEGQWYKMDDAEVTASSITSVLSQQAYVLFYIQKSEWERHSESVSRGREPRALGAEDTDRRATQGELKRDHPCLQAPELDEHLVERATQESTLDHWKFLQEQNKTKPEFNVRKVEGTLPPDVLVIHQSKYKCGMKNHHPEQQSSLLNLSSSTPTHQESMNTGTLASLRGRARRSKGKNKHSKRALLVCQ

These compounds were tested against Ubiquitin carboxyl-terminal hydrolase 17-like protein 5 (Homo sapiens) (UniProt A8MUK1) (assay: inhibitors of human USP17 deubiquitinase (AID 1645855)). Conditions: purified USP17, Ub-rhodamine cleavage fluorescence, 3 h; at 50 µM; hits give high values.
With CS(=O)(=O)c1ccc(C(=O)N(Cc2ccco2)C2CCN(CCc3ccccn3)CC2)cc1 the inhibition was inactive: -36.9%. N#Cc1cccc(C(=O)N(Cc2cccnc2)C2CCN(CCc3ccccn3)CC2)c1 was tested, and the inhibition was inactive: -25.1%. In the case of CS(=O)(=O)c1ccc(C(=O)N(Cc2cccnc2)C2CCN(CCc3ccc(Cl)cc3)CC2)cc1, the inhibition is reported as inactive: -64.4%. For COc1ccc(CCN2CCC(N(Cc3ccco3)C(=O)c3ccc(S(C)(=O)=O)cc3)CC2)cc1, the inhibition was inactive: -26.2%. For N#Cc1cccc(C(=O)N(Cc2ccco2)C2CCN(CCc3ccccn3)CC2)c1, the inhibition was inactive: 4.69%. In the case of CN1C(=O)C2C(NC(=NCc3ccco3)N2CCc2ccccc2)N(C)C1=O (stereo unspecified), the inhibition is reported as inactive: -5.83%. With N#Cc1cccc(C(=O)N(Cc2ccco2)C2CCN(CCc3ccc(Cl)cc3)CC2)c1 the inhibition was inactive: -23.4%. Cc1[nH]c2c(N(C(=O)Nc3ccccc3)C3CCN(Cc4ccccc4)CC3)cccc2c1C was tested, and the inhibition was inactive: -24%. In the case of COc1ccc(CCN2CCC(N(Cc3cccnc3)C(=O)c3cccc(C#N)c3)CC2)cc1, the inhibition is reported as inactive: -33.7%. With O=C(c1ccc2c(c1)OCO2)N(Cc1ccco1)C1CCN(CCc2ccccn2)CC1 the inhibition was inactive: -9.71%. With O=C(COC(=O)C(O)(c1ccccc1)c1ccccc1)NCc1ccc2c(c1)OCO2 the inhibition was inactive: -24.1%.
